Measurements as given in patent publication US9102686B2, “5,6,7,8,9,10-hexahydro-6,10-epimino[1,2,4]triazolo[4,3-a]azocines as P2X7 modulators” (Janssen Pharmaceutica NV, priority 2013, dated 2015).

Chains of the proteins cited; added tags and fusions are not shown. Lines headed by an entry give the natural chain unless they say otherwise; changes in a name come on top.
UniProt Q64663: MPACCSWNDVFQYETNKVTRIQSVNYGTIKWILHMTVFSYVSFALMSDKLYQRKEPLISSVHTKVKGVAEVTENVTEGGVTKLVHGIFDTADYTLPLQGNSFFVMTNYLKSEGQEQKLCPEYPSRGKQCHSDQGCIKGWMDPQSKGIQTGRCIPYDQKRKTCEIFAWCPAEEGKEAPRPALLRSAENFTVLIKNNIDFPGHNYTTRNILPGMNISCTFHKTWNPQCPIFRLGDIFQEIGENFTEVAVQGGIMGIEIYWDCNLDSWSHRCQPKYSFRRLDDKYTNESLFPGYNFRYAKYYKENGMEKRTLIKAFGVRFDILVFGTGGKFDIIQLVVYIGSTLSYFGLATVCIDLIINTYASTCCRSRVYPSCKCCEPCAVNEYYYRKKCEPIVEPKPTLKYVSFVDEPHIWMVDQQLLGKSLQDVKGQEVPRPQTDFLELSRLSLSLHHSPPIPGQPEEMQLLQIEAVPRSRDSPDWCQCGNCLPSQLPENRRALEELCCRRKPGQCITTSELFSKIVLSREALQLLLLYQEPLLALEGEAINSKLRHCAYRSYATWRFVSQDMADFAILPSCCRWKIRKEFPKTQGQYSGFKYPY
UniProt Q99572: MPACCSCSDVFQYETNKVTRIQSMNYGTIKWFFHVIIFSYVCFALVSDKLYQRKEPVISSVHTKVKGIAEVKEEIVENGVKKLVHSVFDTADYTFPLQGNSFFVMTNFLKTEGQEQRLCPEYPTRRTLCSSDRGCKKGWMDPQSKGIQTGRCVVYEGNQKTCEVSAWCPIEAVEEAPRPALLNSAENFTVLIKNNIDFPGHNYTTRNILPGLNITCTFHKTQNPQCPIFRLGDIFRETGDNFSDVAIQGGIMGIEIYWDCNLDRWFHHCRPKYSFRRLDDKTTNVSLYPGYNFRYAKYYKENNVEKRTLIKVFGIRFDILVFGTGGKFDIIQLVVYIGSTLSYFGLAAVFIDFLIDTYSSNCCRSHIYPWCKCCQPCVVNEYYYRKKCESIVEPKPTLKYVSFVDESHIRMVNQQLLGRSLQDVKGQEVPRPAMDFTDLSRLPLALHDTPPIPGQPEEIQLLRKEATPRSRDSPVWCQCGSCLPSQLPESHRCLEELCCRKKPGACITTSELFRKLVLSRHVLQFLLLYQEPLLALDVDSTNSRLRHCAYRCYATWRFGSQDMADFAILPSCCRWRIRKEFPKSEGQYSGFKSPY

Legend:
rat P2X7 [1] = target: T1, rat P2X7 (Rattus norvegicus (Rat), UniProt Q64663); experiment: Ca2+ flux (FLIPR) in 1321N1 cells expressing recombinant rat P2X7 channel; format: cell-based; settings: rat P2X7, 250 μM BzATP
P2X7 [2] = target: T2, P2X7 (Homo sapiens (Human), UniProt Q99572); experiment: Radioligand binding, human P2X7-1321N1 cell membranes, tritiated A-804598; settings: human P2X7-1321N1 membranes, tracer tritiated A-804598, 1 hour 4° C.
Experimental: P2X7 Antagonism in Recombinant hP2X7 Cells: (a) Ca^2+ Flux (b) Radioligand Binding
(B) Radioligand binding: human or rat P2X7-1321N1 cells were collected and frozen @−80° C. On the day of the experiment, cell membrane preparations were made according to standard published methods. The total assay volume was 100 μl:10 μl compound (10×)+(b) 40 μl tracer (2.5×)+50 μl membrane (2×). The tracer used for the assay was tritiated A-804598. The compound can be prepared as described in the literature. […] The assay was terminated by filtration (GF/B filters pre-soaked with 0.3% PEI) and washed with washing buffer (Tris-HCl 50 mM). The IC50 generated in the binding assay was corrected for tracer concentration and affinity of the tracer to derive at the affinity (Ki) of the test compounds.

rat P2X7 [3] = target: T1, rat P2X7; experiment: Radioligand binding, rat P2X7-1321N1 cell membranes, tritiated A-804598; settings: rat P2X7-1321N1 membranes, tracer tritiated A-804598, 1 hour 4° C.
P2X7 [4] = target: T2, P2X7; experiment: P2X7 antagonism in human PBMCs (IL-1β release, LPS + Bz-ATP); format: cell-based; settings: 10 μM test compound, IL-1β release in human PBMCs, LPS 30 ng/ml, Bz-ATP 0.5 mM, read-out: PBMC 10 μM (% control)
Experimental: Human blood was collected using a blood donor program. […] Cells were incubated for an additional 1.5 hours.

P2X7 [5] = target: T2, P2X7; experiment: Ca2+ flux (FLIPR) in 1321N1 cells expressing recombinant human P2X7 channel; format: cell-based; settings: human P2X7, 250 μM BzATP

Compound | IC50 (rat P2X7 [1]) [µM] | also measured
O=C(c1cccc(C(F)(F)F)c1Cl)N1[C@H]2CC[C@@H]1c1nnc(-c3cccnc3)n1C2 [Example 48, (6S,9R)-10-{[2-Chloro-3-(trifluoromethyl)phenyl]carbonyl}-3-pyridin-3-yl-6,7,8,9-tetrahydro-5H-6,9-epimino[1,2,4]triazolo[4,3-a]azepine] | 2.92 | 
O=C(c1ccc(F)c(C(F)(F)F)c1Cl)N1[C@H]2CC[C@@H]1c1nnc(-c3ccccn3)n1C2 [Example 43, (6S,9R)-10-{[2-Chloro-4-fluoro-3-(trifluoromethyl)phenyl]carbonyl}-3-pyridin-2-yl-6,7,8,9-tetrahydro-5H-6,9-epimino[1,2,4]triazolo[4,3-a]azepine] | 3.98 | 
Cc1nc(-c2nnc3n2C[C@@H]2CC[C@H]3N2C(=O)c2cccc(C(F)(F)F)c2Cl)cs1 [Example 56, (6S,9R)-10-{[2-Chloro-3-(trifluoromethyl)phenyl]carbonyl}-3-(2-methyl-1,3-thiazol-4-yl)-6,7,8,9-tetrahydro-5H-6,9-epimino[1,2,4]triazolo[4,3-a]azepine] | 5.97 | 
Cc1c(C(=O)N2[C@H]3CC[C@@H]2c2nnc(-c4ccccn4)n2C3)cccc1C(F)(F)F [Example 44, (6S,9R)-10-{[2-Methyl-3-(trifluoromethyl)phenyl]carbonyl}-3-pyridin-2-yl-6,7,8,9-tetrahydro-5H-6,9-epimino[1,2,4]triazolo[4,3-a]azepine] |  | Ki (P2X7 [2]): 12.6 nM; Ki (rat P2X7 [3]): 12.6 nM
O=C(c1cccc(C(F)(F)F)c1Cl)N1[C@H]2CC[C@@H]1c1nnc(-c3ccc(F)cn3)n1C2 [Example 45, (6S,9R)-10-{[2-Chloro-3-(trifluoromethyl)phenyl]carbonyl}-3-(5-fluoropyridin-2-yl)-6,7,8,9-tetrahydro-5H-6,9-epimino[1,2,4]triazolo[4,3-a]azepine] | 15.8 | 
O=C(c1cccc(C(F)(F)F)c1Cl)N1[C@H]2CCC[C@@H]1c1nnc(-c3ccccn3)n1C2 (relative stereo) [Example 32, (6S*,10R*)-11-{[2-Chloro-3-(trifluoromethyl)phenyl]carbonyl}-3-pyridin-2-yl-5,6,7,8,9,10-hexahydro-6,10-epimino[1,2,4]triazolo[4,3-a]azocine] |  | remaining activity at 10 µM (P2X7 [4]): 94.5%
O=C(c1cccc(C(F)(F)F)c1Cl)N1[C@H]2CCC[C@@H]1c1nnc(-c3ccc(Cl)cn3)n1C2 (relative stereo) [Example 29, (6S*,10R*)-3-(5-Chloropyridin-2-yl)-11-{[2-chloro-3-(trifluoromethyl)phenyl]carbonyl}-5,6,7,8,9,10-hexahydro-6,10-epimino[1,2,4]triazolo[4,3-a]azocine] |  | remaining activity at 10 µM (P2X7 [4]): 91.4%
O=C(c1cccc(C(F)(F)F)c1Cl)N1[C@H]2CC[C@@H]1c1nnc(-c3ccc(Cl)s3)n1C2 [Example 55, (6S,9R)-3-(5-Chlorothiophen-2-yl)-10-{[2-chloro-3-(trifluoromethyl)phenyl]carbonyl}-6,7,8,9-tetrahydro-5H-6,9-epimino[1,2,4]triazolo[4,3-a]azepine] | 1.97 | 
O=C(c1ccc(F)c(Cl)c1Cl)N1[C@H]2CC[C@@H]1c1nnc(-c3cnccn3)n1C2 [Example 47, (6S,9R)-10-[(2,3-Dichloro-4-fluorophenyl)carbonyl]-3-pyrazin-2-yl-6,7,8,9-tetrahydro-5H-6,9-epimino[1,2,4]triazolo[4,3-a]azepine] | 1.92 | 
O=C(c1cccc(C(F)(F)F)c1Cl)N1[C@H]2CC[C@@H]1c1nnc(-c3ncc(F)cn3)n1C2 [Example 50, (6S,9R)-10-{[2-Chloro-3-(trifluoromethyl)phenyl]carbonyl}-3-(5-fluoropyrimidin-2-yl)-6,7,8,9-tetrahydro-5H-6,9-epimino[1,2,4]triazolo[4,3-a]azepine] |  | IC50 (P2X7 [5]): 10.4 nM
